pEC50: −log10 of the molar value.

Protein sequences, listed by entry. Tags and fused reporters are not part of them. Residues count along the entry.
UniProt P35557, 1-466 isoform 2: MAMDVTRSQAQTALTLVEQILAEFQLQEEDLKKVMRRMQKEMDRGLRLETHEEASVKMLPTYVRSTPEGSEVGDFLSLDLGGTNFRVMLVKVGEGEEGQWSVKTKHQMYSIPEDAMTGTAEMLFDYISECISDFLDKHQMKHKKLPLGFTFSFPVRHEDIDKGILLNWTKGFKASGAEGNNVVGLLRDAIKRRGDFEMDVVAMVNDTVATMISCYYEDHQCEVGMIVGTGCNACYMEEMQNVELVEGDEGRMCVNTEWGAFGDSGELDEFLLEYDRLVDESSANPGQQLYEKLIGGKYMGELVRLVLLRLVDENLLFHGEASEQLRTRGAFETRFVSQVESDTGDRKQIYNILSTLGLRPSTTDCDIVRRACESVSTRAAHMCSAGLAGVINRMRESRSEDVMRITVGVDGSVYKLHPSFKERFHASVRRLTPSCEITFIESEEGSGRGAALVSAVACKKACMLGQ

The experiment has as its target human liver GK (Homo sapiens, UniProt P35557). Description: GK activation test. The settings on record: read-out: GK EC50; test compound concentration needed to activate 50% of maximum activation ability; 4 mM 14C-labeled glucose, 2 mM ATP, room temperature, 20 minutes. How it is done: The GK activation test for the test compounds was performed by the method of Irwin A. Rose et al. (J. Biol. Chem. 1964 January; 239:12-7) with partial modifications.
The enzyme source used in this assay, human liver GK, was expressed in E. coli as a fusion protein with GST (glutathione S-transferase) added to the amino terminus and was purified using Glutathione Sepharose 4B (Amersham Biosciences).
The test was carried out using flat-bottom 96-well plates (Sumitomo Bakelite Co., Ltd.). A solution of the test compound in dimethyl sulfoxide (DMSO) and DMSO as a control were added to each well of the plates at a final DMSO concentration of 1%. 25 mM Hepes-KOH (pH=7.1), 25 mM KCl, 2 mM MgCl2, 2 mM ATP, 4 mM ^14C-labeled glucose (Muromachi Yakuhin) and 1 mM DTT (dithiothreitol) were further added at the indicated final concentrations, respectively. Finally, human liver GK was added at 0.24 microgram per well and the reaction was started. The reaction was carried out at room temperature.
After 20 minutes, AG1-X4 resin (BioRad) suspended in 25 mM Hepes-KOH (pH=7.1) was added and the reaction product, labeled glucose 6-phosphate, was allowed to bind thereto. The whole volume was transferred to MultiScreen plates (Millipore) and the resin was washed with water. Thereafter, the labeled glucose 6-phosphate binding to the resin was eluted with a 0.5 M NaCl solution. The labeling activity of the eluted labeled glucose 6-phosphate was measured as an index of GK activity.
The GK activity maximally activated by the test compound was described as maximum activation ability, and the test compound concentration needed to activate 50% of that ability was described as EC50.
One may read the pEC50 as the EC50 on a negative log10 scale, so that one unit is a factor of ten. Take `CSc1ccc(/C(=N/OC2CCCC2)c2ccc(C)c(=O)[nH]2)cc1Cl`: the pEC50 was 5.52 to 6.30. For `Cc1ccc(/C(=N/OC2CCCC2)c2ccc(S(C)(=O)=O)c(Cl)c2)[nH]c1=O` the value was 5.00 to 5.52; for `Cc1ccc(/C(=N\OC2CCCC2)c2ccc(S(C)(=O)=O)c(Cl)c2)[nH]c1=O`, 5.52 to 6.30. For the compound `CSc1ccc(/C(=N\OC2CCCC2)c2ccc(C)c(=O)[nH]2)cc1Cl`, the negative logarithm of the EC50 (pEC50) was 5.52 to 6.30.

The record behind these values is patent publication US8822503B2, “2-pyridone compounds” (Taisho Pharmaceutical Co., Ltd, priority 2009, dated 2014).
